The target in this experiment is T1, human CMKLR1 (Homo sapiens, UniProt Q99788).
T1 construct: host or cells: HEK293A (Invitrogen), stably expressing human Gα15
T1 sequence (Q99788 1-373): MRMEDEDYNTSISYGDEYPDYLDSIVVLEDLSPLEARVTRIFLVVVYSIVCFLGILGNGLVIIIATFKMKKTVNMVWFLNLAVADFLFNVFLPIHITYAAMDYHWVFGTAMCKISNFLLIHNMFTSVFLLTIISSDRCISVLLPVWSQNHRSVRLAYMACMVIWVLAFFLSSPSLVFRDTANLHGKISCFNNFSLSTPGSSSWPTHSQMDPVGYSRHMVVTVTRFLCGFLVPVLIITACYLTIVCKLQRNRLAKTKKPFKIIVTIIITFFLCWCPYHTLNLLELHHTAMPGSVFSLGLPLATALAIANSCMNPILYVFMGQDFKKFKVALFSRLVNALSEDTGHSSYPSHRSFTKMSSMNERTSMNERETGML
In words: Ca2+ mobilization (CellLux imaging) agonist assay in HEK293A cells expressing CMKLR1 and Gα15. The format is cell-based. As to the method: HEK293A cells (Invitrogen) expressing CMKLR1 and Gα15 were seeded at 5*10^4 cells/well in a poly-D-lysine coated 96-well black well/clear bottom plate (BD Falcon) and cultured overnight. From eighteen to twenty-four hours later, cells were loaded with FLUO4-AM (Invitrogen). Then the cells were washed two times with C1 solution (130 mM NaCl, 5 mM KCl, 10 mM HEPES pH 7.4, 2 mM CaCl2, and 10 mM Glucose). After the final wash, a 100 µL of residual volume remained on the cells. Peptides were dissolved in 10% DMSO to a concentration of 1 mM and were diluted in C1 solution with 0.1 % BSA. They were aliquoted as 2x solutions in 96-well plates and were simultaneously transferred by the robotic system within the imager from the ligand plate to the cell plate. […] Fluorescence data was generated in duplicate and experiments were repeated for at least three times. […] For the calculation of concentration-response curves, signals of two wells receiving the same concentration of test substances were averaged and the fluorescence changes of corresponding buffer C1 wells were subtracted. Signals were normalized to background fluorescence. For the calculation of EC50 values, plots of amplitude versus concentrations were prepared in SigmaPlot 11.
A general note: Calcium flux is commonly read through the fluorescence of an indicator in the cells.

As for `C[C@H](NC(=O)[C@H](Cc1ccccc1)NC(=O)[C@H](CCC(N)=O)NC(=O)CNC(=O)[C@@H]1CCCN1C(=O)[C@H](Cc1ccccc1)NC(=O)[C@@H](N)Cc1ccc(O)cc1)C(=O)N[C@@H](Cc1ccccc1)C(=O)NCC(=O)O`, the EC50 – broadly, the concentration giving half of the maximal effect – turned out to be 0.79 ± 0.54 nM.

Values taken from paper PMC3351444, “Molecular Evolution of a Peptide GPCR Ligand Driven by Artificial Neural Networks” (PLoS ONE, 2012).
